PubChem BioAssay AID687014 (The Scripps Research Institute Molecular Screening Center, 2013)
This is a selection; strong and weak results do not stand in their true shares. Active and inactive are the calls of the source.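 The calls were made as follows: active = activation above a cutoff set at the mean of all screened compounds plus 3 SD (cut at about 10% in these data); inactive = the rest.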

Tested on: Nuclear hormone receptor DAF-12 (Heterodera glycines), GAL4 fusion
Test: H. glycines DAF-12 receptor agonists, primary screen, cell-based, luminescence, HEK293, GAL4 fusion, UAS-luciferase (AID 687014);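 also: 0% = DMSO wells and 100% = sodium butyrate wells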
Settings: HEK293 GAL4-hgDAF12 UAS-luciferase reporter, agonist luminescence; at 6.8 µM; stronger effect = higher value; normalized to butyrate control

| SMILES | activation |
| --- | --- |
| O=C(NC(Sc1ccncn1)C(Cl)(Cl)Cl)c1ccccc1 (stereo unspecified) | inactive: -1.08% |
| CC(C)CC(=O)NC(Sc1ccc(Cl)cc1)C(Cl)(Cl)Cl (stereo unspecified) | inactive: 3.65% |
| Nc1cc(N)c2nonc2c1[N+](=O)[O-] | inactive: -0.86% |
| CN(C(=O)Cc1ccc(Cl)c(Cl)c1)[C@H]1CCCC[C@H]1N1CCCC1 | inactive: 2.37% |
| Cc1ccc(N/C(=N/P(=O)(N2CCOCC2)N2CCOCC2)N2CCOCC2)cc1 | inactive: -1.27% |
| NC(=O)c1cc([N+](=O)[O-])cc([N+](=O)[O-])c1N | inactive: 3.32% |
| Clc1ccc(Cl)c(NC2=NCC(CBr)S2)c1 (stereo unspecified) | inactive: 1.81% |
| CN1CCCC(OC(=O)C(c2ccccc2)c2ccccc2)C1 (stereo unspecified) | inactive: 1.46% |
| COc1ccccc1OP(=O)(Nc1ccc(C)cn1)Oc1ccccc1OC | inactive: -0.27% |
| Cc1ccc(OP(=O)(Nc2nccs2)Oc2ccc(C)cc2)cc1 | inactive: -0.83% |
| Nc1cccc2ccc([As](=O)(O)O)cc12 | inactive: -0.11% |
| CN(C(=O)Cc1ccccc1)C1CC[C@@]2(CCCO2)C[C@@H]1N1CCCC1 (stereo partly specified) | inactive: -0.66% |
| CCN(N=Nc1nonc1N)c1nonc1N | inactive: -1.21% |
| CN(C)P(=O)(N(C)C)n1c(Nc2ccccc2)nnc1-c1ccccc1 | inactive: 5.55% |
| O=P(Nc1nc2ccc(Cl)cc2s1)(c1ccccc1)c1ccccc1 | inactive: -0.56% |
| O=C(O)c1ccccc1[As](=O)(O)O | inactive: -2.63% |
| CC(=O)Nc1ccc([As](=O)(O)O)cc1 | inactive: -0.93% |
| CCCC1OP(N)(=O)OCC1CC (stereo unspecified) | inactive: -0.15% |
| CCn1c(=O)n(C2CCN(CC3CCCCCCC3)C[C@H]2CO)c2ccccc21 (stereo partly specified) | inactive: -3.57% |
| CCOP(=O)(Nc1ccccc1)OCC | inactive: -1.83% |
| Cc1cc(SC(NC(=O)c2ccc(F)cc2)C(Cl)(Cl)Cl)ncn1 (stereo unspecified) | inactive: 2.39% |
| CN(C(=O)Cc1ccc(Cl)c(Cl)c1)[C@H]1CCCC[C@@H]1N1CCCC1 | inactive: -1.37% |
| Cc1ccc(NP(=O)(Oc2ccccc2F)Oc2ccccc2F)nc1 | inactive: 0.39% |

| SMILES | activation |
| --- | --- |
| ClCCSc1nnc(-c2cccnc2)o1 | inactive: 2.13% |
| CC(C)c1ccc(OP(=O)(Nc2ccccn2)Oc2ccccc2F)cc1 (stereo unspecified) | inactive: -1.41% |
| COC(=O)C1(C)COP(=O)(N2CCCCCC2)OC1 (stereo unspecified) | inactive: -2.39% |
| CCN(CC)C(=S)SC(NC=O)C(Cl)(Cl)Cl (stereo unspecified) | inactive: 0% |
| O=C(OC1CN2CCC1CC2)c1cccc2[nH]cnc12 (stereo unspecified) | inactive: 3.08% |
| CC(C)NC(=O)NP(=O)(Oc1ccccc1)Oc1ccccc1 | inactive: -3.27% |
| O=[As](O)(c1ccc(O)cc1)c1ccccc1O | inactive: -2.36% |
| C[As](=O)(O)c1cccc(C(=O)O)c1 | inactive: 1.61% |
| COc1cc(C(=O)NCC2(N3CCOCC3)CCCCC2)ccc1OCC(C)C | inactive: -0.72% |
| O=[N+]([O-])c1ccc(-c2cc([N+](=O)[O-])c(O)c([N+](=O)[O-])c2)cc1 | inactive: -2.14% |
| Cc1ccc(OP(=O)(Nc2ccc([N+](=O)[O-])cn2)Oc2ccc(C)cc2)cc1 | inactive: -0.6% |
| [N-]=[N+]=NC1CCCCC1NC(=O)c1cc([N+](=O)[O-])cc([N+](=O)[O-])c1 (stereo unspecified) | inactive: -0.82% |
| Cc1ccc2nc3c(c(C)c2c1)CC(C(Cl)Cl)S3 (stereo unspecified) | inactive: 4.76% |
| O=[N+]([O-])c1cc(Oc2ccc([N+](=O)[O-])cc2C(F)(F)F)cc([N+](=O)[O-])c1 | inactive: 0.71% |
| COc1ccc(N/C(=N/P(=O)(N2CCOCC2)N2CCOCC2)N2CCOCC2)cc1 | inactive: 0.65% |
| Cc1c2c(nc3ccccc13)SC(C(Cl)Cl)C2 (stereo unspecified) | inactive: -1.85% |
| O=C(OC1CN2CCC1CC2)C12CC3CC(CC(C3)C1)C2 (stereo unspecified) | inactive: -0.05% |
| Cc1cc(=O)[nH]c(N[N+](=O)[O-])n1 | inactive: 0.67% |
| O=P1(N(CCCl)CCCl)Nc2ccccc2N1 | active: 16.1% |
| O=P1(N(CCCl)CCCl)OCCCN1CCCl (stereo unspecified) | inactive: 0.21% |
| COc1ccc2nc(NP(=O)(c3ccccc3)c3ccccc3)sc2c1 | inactive: 2.63% |
| COc1cc(I)ccc1[As](=O)(O)O | inactive: -0.11% |
| O=C(OC1CN2CCC1CC2)c1cccc([N+](=O)[O-])c1 (stereo unspecified) | inactive: 1.1% |

| SMILES | activation |
| --- | --- |
| CCOC(=O)c1ccc(NC(=O)C(C)(CCl)SC)cc1 (stereo unspecified) | inactive: 1.02% |
| CCC(C)N(CC(C)C)C(=S)SC(NC(C)=O)C(Cl)(Cl)Cl (stereo unspecified) | inactive: 1.85% |
| COP1(=S)c2c(C)nn(CCC#N)c2N=C(c2ccc(F)cc2)N1C (stereo unspecified) | inactive: -1.72% |
| COC(=O)C1(C)COP(=O)(N2CCCC2)OC1 (stereo unspecified) | inactive: 1.63% |
| O=C(O)C(=O)c1ccc(N(CCCl)CCCl)cc1 | inactive: 0.2% |
| O=C(COc1ccccc1)OC1CN2CCC1CC2 (stereo unspecified) | inactive: 3.37% |
| O=C(Nc1ccncc1[N+](=O)[O-])c1ccc([N+](=O)[O-])cc1[N+](=O)[O-] | inactive: 0.62% |
| CCOC(=O)Nc1cccc([As](=O)(O)O)c1 | inactive: 2.61% |
| Cc1cc(SC(NC=O)C(Cl)(Cl)Cl)ncn1 (stereo unspecified) | inactive: -1.1% |
| O=P(Nc1ccccn1)(c1cccc2ccccc12)c1cccc2ccccc12 | inactive: -0.03% |
| O=[N+]([O-])c1ccc(Nc2ccc(Oc3ccc([N+](=O)[O-])cc3[N+](=O)[O-])cc2)c([N+](=O)[O-])c1 | inactive: 0.44% |
| O=C(O)C(O)c1ccc(N(CCCl)CCCl)cc1 (stereo unspecified) | inactive: -1.45% |
| CCOC(=O)Nc1ccc([As](=O)(O)O)c(O)c1 | inactive: -0.08% |
| CC1CCNP(=O)(N(CCCl)CCCl)O1 (stereo unspecified) | inactive: 1.87% |
| COP(=O)(OC)N1CC1c1ccccc1 (stereo unspecified) | inactive: -2.11% |
| CCCCOc1ccc(C(=O)NCC2(N3CCCCC3)CCCCC2)cc1OC | inactive: 3.95% |
| Cc1cc(SC(NC(=O)c2ccccc2)C(Cl)(Cl)Cl)nc(C(C)C)n1 (stereo unspecified) | inactive: -1.55% |
| Cc1ccc(S(=O)(=O)N(CCCN)CCCc2c(C)nc(N)[nH]c2=O)cc1 | inactive: 0.14% |
| O=P1(Nc2ncccn2)COc2ccccc2OC1 | inactive: -1.78% |
| Nc1cccc([As](=O)(O)c2ccccc2)c1 | inactive: -2.46% |
| NS(=O)(=O)c1cccc(NC(=O)COC(=O)C(O)(c2ccccc2)c2ccccc2)c1 | inactive: 1.97% |
| O=P1(Nc2ccc(Br)cn2)COc2ccccc2OC1 | inactive: 0.21% |
| Cc1ccc(OCC(=O)OC2CN3CCC2CC3)cc1 (stereo unspecified) | inactive: 0.36% |

| SMILES | activation |
| --- | --- |
| O=[As](O)(c1cccs1)c1cccs1 | inactive: -2.21% |
| Cc1nn(-c2ccccc2)c2c1P(=O)(N1CCOCC1)N(C)C(c1ccccc1)=N2 (stereo unspecified) | inactive: 2.48% |
| Cc1ccc(C(=O)OC2CN3CCC2CC3)cc1 (stereo unspecified) | inactive: 4.26% |
| CC1CCC(C(C)C)C(OP(=O)(Nc2ccccn2)c2ccccc2)C1 (stereo unspecified) | inactive: 0.98% |
| CN(C)C1(CNC(=O)c2ccc(S(C)(=O)=O)cc2)CCCCC1 | inactive: -2.25% |
| O=C(/C=C/c1ccccc1)OC1CN2CCC1CC2 (stereo unspecified) | inactive: 1.04% |
| CCCC1OP(=O)(Nc2ccccc2)OCC1CC (stereo unspecified) | inactive: 2.08% |
| COc1ccccc1CNC(=O)COC(=O)C(O)(c1ccccc1)c1ccccc1 | inactive: -1.15% |
| CN(C(=O)Cc1ccc(Cl)c(Cl)c1)[C@@H]1CCCC[C@H]1N1CCCC1 | inactive: -0.44% |
| CC(C)/C=N\N=C(\N)N[N+](=O)[O-] | inactive: 0.4% |
| CN(C(=O)Cc1ccc(Cl)c(Cl)c1)C1CCCC[C@@H]1N1CCCC1 (stereo partly specified) | inactive: 0.61% |
| CC1(CBr)Cn2c(nc3ccccc3c2=O)S1 (stereo unspecified) | inactive: -1.1% |
| CCC1=CC2Cc3nc4ccc(Cl)cc4c(N)c3C(C1)C2 (stereo unspecified) | inactive: 4.16% |
| O=P1(Nc2ccccn2)COc2ccccc2OC1 | inactive: -2.81% |
| CCOP(=O)(NC(=NC(C)c1ccccc1)NC(C)c1ccccc1)OCC (stereo unspecified) | inactive: -0.12% |
| CN(CCCl)Cc1cc(Cl)c(NC2=NCCN2)c(Cl)c1 | inactive: 0.55% |
| CCOP(=O)(Nc1ccc(C)cn1)OCC | inactive: -0.19% |
| Clc1n[nH]nc1-c1nn[nH][15n]1 | inactive: 0.98% |
| O=P1(N(CCCl)CCCl)NCCC(C(F)(F)F)O1 (stereo unspecified) | inactive: 1.75% |
| CC(C)(C)C(=O)NC(Sc1ncccn1)C(Cl)(Cl)Cl (stereo unspecified) | inactive: -2.13% |
| Cc1ccc(NCCc2c([N+](=O)[O-])cc([N+](=O)[O-])cc2[N+](=O)[O-])cc1 | inactive: 4.67% |
| Nc1cccc2c([As](=O)(O)O)cccc12 | inactive: -1.96% |
| CCCOP(=S)(Nc1nc(N)cc(=O)[nH]1)OCCC | inactive: -0.31% |

| SMILES | activation |
| --- | --- |
| COc1cc(C2NCCC3(OCCO3)C2(C)C)cc(OC)c1OC (stereo unspecified) | inactive: 1.69% |
| CCOP(=O)(Nc1cccc2ccccc12)OCC | inactive: 1.27% |
| O=C(OC1CN2CCC1CC2)c1ccc(Cl)cc1 (stereo unspecified) | inactive: -0.44% |
| COc1cc(C(=O)NCC2(N3CCOCC3)CCCCC2)cc(Cl)c1OC(C)C | inactive: -0.61% |
| O=[As](O)(O)c1cccnc1 | inactive: 0.63% |
| CS(=O)(=O)c1ccc(Cl)c(NC(=O)COC(=O)C(O)(c2ccccc2)c2ccccc2)c1 | inactive: -0.04% |
| O=[As](O)(c1cccc(O)c1)c1cccc(O)c1 | inactive: -1.42% |
| Cc1cccc(OCC(=O)OC2CN3CCC2CC3)c1 (stereo unspecified) | inactive: -2.05% |
| NC(=O)Nc1ccc([As](=O)(O)O)cc1 | inactive: 0.76% |
| N#CCCN(C(=O)COC(=O)C(O)(c1ccccc1)c1ccccc1)c1ccc(F)cc1 | inactive: 3.71% |
| CCOP1(=S)c2c(C)nn(CCC#N)c2N=C(c2ccc(F)cc2)N1C (stereo unspecified) | inactive: -0.92% |
| CN(C(=O)Cc1ccccc1)[C@@H]1CC[C@]2(CCCO2)C[C@H]1N1CCCC1 | inactive: 1.47% |
| CN(C)C(=O)c1cc([N+](=O)[O-])cc2c1-c1c(cc([N+](=O)[O-])cc1[N+](=O)[O-])C2=O | inactive: -2.03% |
| O=[N+]([O-])c1ccc2c(c1)nnn2O | inactive: -0.47% |
| CN(C(=O)Cc1ccc(Cl)c(Cl)c1)[C@H]1CC[C@@]2(CCCO2)C[C@@H]1N1CCCC1 | inactive: 3.89% |
| CCOP1(=S)c2c(C)nn(CCC#N)c2N=C(c2ccccc2F)N1C (stereo unspecified) | inactive: -0.03% |
| O=P(Nc1nccs1)(Oc1ccccc1)Oc1ccccc1 | inactive: 0.1% |
| O=C(O)COc1ccc([As](=O)(O)O)cc1[N+](=O)[O-] | inactive: -1.82% |
| Nc1ccccc1[As](=O)(O)c1ccccc1 | inactive: 1.97% |
